Measurements reported in PubChem BioAssay AID588456 (National Center for Advancing Translational Sciences (NCATS), 2011).
Only a part is listed here, and it is no random draw. Some tests of the compounds listed are not included; inactive here does not mean inactive elsewhere. The source made the active and inactive calls. The call rests on the fitted dose curve; in most records, active means well fitted inhibition curve with a large enough effect; inconclusive means small, poorly fitted or top-dose-only effect; inactive means no such curve, though single readings can be large or run the other way.

Amino acid sequences for entries named in this document (tags omitted).
UniProt O89049, whole entry: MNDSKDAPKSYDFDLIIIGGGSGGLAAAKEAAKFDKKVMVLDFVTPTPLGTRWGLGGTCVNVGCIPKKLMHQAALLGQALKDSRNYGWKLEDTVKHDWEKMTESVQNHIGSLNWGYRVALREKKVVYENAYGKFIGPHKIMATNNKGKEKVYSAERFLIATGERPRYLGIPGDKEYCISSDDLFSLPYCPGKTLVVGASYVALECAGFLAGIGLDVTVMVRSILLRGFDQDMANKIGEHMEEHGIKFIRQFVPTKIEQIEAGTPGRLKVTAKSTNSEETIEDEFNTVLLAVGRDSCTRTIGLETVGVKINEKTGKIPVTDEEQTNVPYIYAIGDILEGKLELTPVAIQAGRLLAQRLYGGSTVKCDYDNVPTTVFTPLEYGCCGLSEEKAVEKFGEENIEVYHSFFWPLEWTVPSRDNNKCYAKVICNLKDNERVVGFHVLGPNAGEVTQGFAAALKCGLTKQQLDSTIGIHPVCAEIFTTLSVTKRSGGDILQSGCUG

Biological target: Thioredoxin reductase 1, cytoplasmic (Rattus norvegicus) (UniProt O89049)
Assay: qHTS Assay for Substrates of Mammalian Selenoprotein Thioredoxin Reductase 1 (TrxR1): qHTS; further: nearly all actives have a fitted effect of over 50% in size
Conditions: purified TrxR1 substrate turnover, NADPH consumption readout
[1] = at 114 µM (top of the series) unless noted
On the % scale 0 is the no-effect control and ±100 the full control effect.

With O=C(NCC1(N2CCCCC2)CCCCC1)c1cc(F)c(F)cc1Cl the activity change, negative = substrate turnover [1] was inactive: 8.63% [at 0.0914 µM].
In the case of C=CCN1CCN(CCOC(=O)C(O)(c2ccccc2)c2ccccc2)CC1, the activity change, negative = substrate turnover [1] is reported as inactive: -0.723%.
With CCOc1cccc(C(=O)NCC2(N(C)C)CCCCC2)c1 the activity change, negative = substrate turnover [1] was inactive: -1.88%.
For COc1ccc(C(=O)NCC2(N(C)C)CCCCC2)cc1, the activity change, negative = substrate turnover [1] was inactive: 3.49%.
O=C(NCC1(N2CCCCC2)CCCCC1)c1cccc(Br)c1 was tested, and the activity change, negative = substrate turnover [1] was inactive: 3.34%.
For Cc1cc(C(=O)NCC2(N3CCCCC3)CCCCC2)ccc1[N+](=O)[O-], the activity change, negative = substrate turnover [1] was inactive: 9.92%.
For CCN1CCCC(OC(=O)C2(O)c3ccccc3C=Cc3ccccc32)C1 (configuration not stated), the activity change, negative = substrate turnover [1] was inactive: 12.3% [at 57.1 µM].
CN(C)C1CCCC1OC(=O)C(O)(c1ccccc1)c1ccccc1 (configuration not stated) was tested, and the activity change, negative = substrate turnover [1] was inactive: -5.17%.
CN(C)c1ccc(C(=O)NCC2(N(C)C)CCCCC2)cc1 was tested, and the activity change, negative = substrate turnover [1] was inactive: 3.07% [at 57.1 µM].
For CN(C)C1(CNC(=O)c2ccccc2[N+](=O)[O-])CCCCC1, the activity change, negative = substrate turnover [1] was inactive: -10.8%.
In the case of Cc1ccccc1C(=O)NCC1(N2CCCCC2)CCCCC1, the activity change, negative = substrate turnover [1] is reported as inactive: 0.737%.
CCCCOc1ccccc1C(=O)NCC1(N(C)C)CCCCC1 was tested, and the activity change, negative = substrate turnover [1] was inactive: -5.56%.
COc1cc(SC)ccc1C(=O)NCC1(N(C)C)CCCCC1 was tested, and the activity change, negative = substrate turnover [1] was inactive: 2.78%.
In the case of CN(C)C1(CNC(=O)c2cccc(Cl)c2)CCCCC1, the activity change, negative = substrate turnover [1] is reported as inactive: 2.17%.
With CCN(CC)CC(C)C(C)OC(=O)C(O)(c1ccccc1)c1ccccc1 (configuration not stated) the activity change, negative = substrate turnover [1] was inactive: -4.06%.
With CC(C)N1C(=O)CC2(CCN(CCOC(=O)C(O)(c3ccccc3)c3ccccc3)CC2)C1=O the activity change, negative = substrate turnover [1] was inactive: 8.28% [at 57.1 µM].
For Cc1ccc(C(=O)NCC2(N3CCCCC3)CCCCC2)cc1, the activity change, negative = substrate turnover [1] was inactive: 2.42%.
CN(C)C1(CNC(=O)c2ccccc2F)CCCCC1 was tested, and the activity change, negative = substrate turnover [1] was inactive: -4.75%.
With O=C(NCC1(N2CCCCC2)CCCCC1)c1cc([N+](=O)[O-])ccc1Cl the activity change, negative = substrate turnover [1] was inactive: 3.5%.
CN1[C@@H]2CC[C@H]1CC(OC(=O)C(O)(c1ccccc1)c1ccccc1)C2 (some centres not stated) was tested, and the activity change, negative = substrate turnover [1] was inactive: -4.86%.
For COc1ccc(Br)c(C(=O)NCC2(N3CCCCC3)CCCCC2)c1, the activity change, negative = substrate turnover [1] was inactive: -0.115%.
For Cc1cccc(C(=O)NCC2(N(C)C)CCCCC2)c1, the activity change, negative = substrate turnover [1] was inactive: 1.86%.
With COc1cc(C(=O)NCC2(N(C)C)CCCCC2)cc(OC)c1OC the activity change, negative = substrate turnover [1] was inactive: 27.4%.
O=C(OCCN1CCCC1)C(O)(c1ccccc1)c1ccccc1 was tested, and the activity change, negative = substrate turnover [1] was inactive: 11.5% [at 57.1 µM].
In the case of CC(C)Oc1ccc(C(=O)NCC2(N(C)C)CCCCC2)cc1, the activity change, negative = substrate turnover (at 57.1 µM (top of the series)) is reported as inactive: 12.1% and the activity change, negative = substrate turnover (at 114 µM (top of the series)) is reported as inactive: -2.2%.
CN(C)c1cccc(C(=O)NCC2(N(C)C)CCCCC2)c1 was tested, and the activity change, negative = substrate turnover [1] was inactive: 7.37% [at 57.1 µM].
In the case of COc1cccc(C(=O)NCC2(N3CCOCC3)CCCCC2)c1, the activity change, negative = substrate turnover [1] is reported as inactive: -4.1%.
O=C(OC1CN2CCC1CC2)C(CO)(c1ccccc1)c1ccccc1 (configuration not stated) was tested, and the activity change, negative = substrate turnover [1] was inactive: -6.33%.
In the case of CC(C)COc1ccc(C(=O)NCC2(N(C)C)CCCCC2)cc1, the activity change, negative = substrate turnover [1] is reported as inactive: -0.587%.
COc1ccc(Cl)cc1C(=O)NCC1(N(C)C)CCCCC1 was tested, and the activity change, negative = substrate turnover [1] was inactive: -0.449% [at 57.1 µM].
For COc1cccc(C(=O)NCC2(N3CCCCC3)CCCCC2)c1, the activity change, negative = substrate turnover [1] was inactive: 7.76%.
In the case of COc1ccc(C(=O)NCC2(N(C)C)CCCCC2)cc1Cl, the activity change, negative = substrate turnover [1] is reported as inactive: -1.94%.
For O=C(NCC1(N2CCCCC2)CCCCC1)c1cccc(Cl)c1, the activity change, negative = substrate turnover [1] was inactive: 1.78%.
O=C(CBr)c1ccc(Cl)cc1 was tested, and the activity change, negative = substrate turnover [1] was inactive: 3.16%.
In the case of CN(C)C1(CNC(=O)c2ccc(Br)cc2)CCCCC1, the activity change, negative = substrate turnover [1] is reported as inactive: 10.8%.
In the case of COc1cc(C(=O)NCC2(N(C)C)CCCCC2)c([N+](=O)[O-])cc1OC, the activity change, negative = substrate turnover [1] is reported as inactive: -9.38%.
